Results taken from PMC9448818, “Effects of CYP2C19 and CYP2D6 gene variants on escitalopram and aripiprazole treatment outcome and serum levels: results from the CAN-BIND 1 study” (Translational Psychiatry, 2022).

Tested on: patients with MDD
Test: Toronto side effects scale (TSES), treatment-related side effects
Assay type: in vivo, human
Details: vs NM; Phase II
Text: The Toronto side effects scale (TSES), administered on Weeks 2, 4, 10, 12, and 16, is a clinical instrument designed to assess the frequency and severity of treatment-related side effects on 5-point Likert scales. The “intensity” score is derived by multiplying the frequency and severity of each side effect. The items assessed can be broadly categorized into the central nervous system (CNS), gastrointestinal (GI), and sexual side effects, as well as weight gain (Table S1)[28]. […]
We assessed the dichotomous measures of response (responder vs. non-responder and remitter vs. non-remitter) and side effects (present vs. absent) for the last timepoint in Phases I and II using logistic regression models with total MADRS score at baseline included as a covariate. Given the availability of biweekly MADRS scores and multiple time points for TSES, continuous measures of response (percentage of symptom improvement) and side effects (intensity of each category of side effects) were assessed using linear mixed-effects models that included interactions of CYP2C19 and CYP2D6 metabolizer groups with timepoint, and recruitment site and individual as random effects variables. […]

CN(C)CCC[C@@]1(c2ccc(F)cc2)OCc2cc(C#N)ccc21 [ESC, Escitalopram]
Odds ratio, presence of tremor, CYP2D6 IM+PM: 1.99
